Biological target: human serotonin 5-HT7 receptors (Homo sapiens, UniProt P34969)
Conditions: FIG. 1B

Sequences of proteins named here, by UniProt entry; tags and fusion partners are left off.
UniProt P34969, whole entry: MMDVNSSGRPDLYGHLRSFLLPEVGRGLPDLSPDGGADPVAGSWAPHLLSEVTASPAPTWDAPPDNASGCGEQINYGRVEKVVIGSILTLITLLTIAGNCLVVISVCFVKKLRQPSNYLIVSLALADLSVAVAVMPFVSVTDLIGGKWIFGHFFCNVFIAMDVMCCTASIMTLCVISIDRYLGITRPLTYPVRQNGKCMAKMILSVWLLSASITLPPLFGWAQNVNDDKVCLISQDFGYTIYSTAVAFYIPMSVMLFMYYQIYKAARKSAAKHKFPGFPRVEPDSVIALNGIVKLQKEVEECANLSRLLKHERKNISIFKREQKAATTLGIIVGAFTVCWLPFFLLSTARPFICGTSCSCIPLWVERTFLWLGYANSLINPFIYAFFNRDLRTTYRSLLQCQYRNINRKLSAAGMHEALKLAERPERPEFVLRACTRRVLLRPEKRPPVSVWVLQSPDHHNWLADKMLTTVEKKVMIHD

5-HT7 antagonism of (R)-amisulpride relative to (S)-amisulpride: about 300 fold
relative potency of the enantiomers, % inhibition of serotonin 5-HT7 binding (3 independent determinations): more potent
SMILES: CCN1CCC[C@@H]1CNC(=O)c1cc(S(=O)(=O)CC)c(N)cc1OC [(R)-amisulpride, R-4-Amino-N-[(1-ethyl-2-pyrrolidinyl)methyl]-5-(ethylsulfonyl)-2-methoxybenzamide]
